Several values for one entry are separate records, joined by “and”; a condition that tells them apart may be missing. Equal values may be shown once.
Experiments:
[1] = target: Sodium-dependent dopamine transporter (Rattus norvegicus, UniProt P23977)
[2] = target: Sodium-dependent serotonin transporter (Rattus norvegicus, UniProt P31652)

Sequences of proteins named here, by UniProt entry; tags and fusion partners are left off.
UniProt P23977, whole entry: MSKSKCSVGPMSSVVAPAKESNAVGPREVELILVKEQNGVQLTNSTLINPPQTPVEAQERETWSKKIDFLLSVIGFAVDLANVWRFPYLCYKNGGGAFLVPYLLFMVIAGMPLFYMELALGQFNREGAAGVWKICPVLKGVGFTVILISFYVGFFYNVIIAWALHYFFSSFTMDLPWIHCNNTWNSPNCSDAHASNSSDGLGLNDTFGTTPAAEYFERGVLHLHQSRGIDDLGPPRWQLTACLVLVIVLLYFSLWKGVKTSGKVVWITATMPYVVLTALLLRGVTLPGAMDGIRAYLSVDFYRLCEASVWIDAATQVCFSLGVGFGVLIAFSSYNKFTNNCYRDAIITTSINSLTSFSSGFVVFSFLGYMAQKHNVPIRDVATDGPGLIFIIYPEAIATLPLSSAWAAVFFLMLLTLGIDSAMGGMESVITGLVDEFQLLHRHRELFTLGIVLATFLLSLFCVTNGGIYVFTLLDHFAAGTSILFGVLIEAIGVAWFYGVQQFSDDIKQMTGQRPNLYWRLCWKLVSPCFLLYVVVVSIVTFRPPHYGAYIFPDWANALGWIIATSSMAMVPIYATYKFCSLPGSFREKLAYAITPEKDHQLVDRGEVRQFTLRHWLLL
UniProt P31652, whole entry: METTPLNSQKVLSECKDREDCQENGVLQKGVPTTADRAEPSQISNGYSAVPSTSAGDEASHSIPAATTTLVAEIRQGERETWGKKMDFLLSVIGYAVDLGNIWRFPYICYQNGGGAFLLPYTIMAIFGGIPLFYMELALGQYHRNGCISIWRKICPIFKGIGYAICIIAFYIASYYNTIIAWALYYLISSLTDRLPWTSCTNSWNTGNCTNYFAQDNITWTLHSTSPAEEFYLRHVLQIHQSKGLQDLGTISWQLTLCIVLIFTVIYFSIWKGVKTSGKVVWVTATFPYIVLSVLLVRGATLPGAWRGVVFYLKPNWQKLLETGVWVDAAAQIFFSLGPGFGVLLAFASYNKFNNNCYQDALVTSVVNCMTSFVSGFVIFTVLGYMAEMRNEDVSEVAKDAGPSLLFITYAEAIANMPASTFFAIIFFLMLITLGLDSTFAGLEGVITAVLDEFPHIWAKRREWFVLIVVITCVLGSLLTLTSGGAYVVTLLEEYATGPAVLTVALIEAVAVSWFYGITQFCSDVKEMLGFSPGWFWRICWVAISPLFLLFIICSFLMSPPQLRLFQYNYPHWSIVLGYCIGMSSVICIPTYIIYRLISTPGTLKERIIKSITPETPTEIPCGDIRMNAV

Row | Ki [1] | Ki [2] | SMILES
1 | 1750 nM and 2450 nM and 360 nM | 690 nM and 1000 nM | CNCCC(Oc1ccccc1OC)c1ccccc1 (stereo not drawn) [3-(2-methoxyphenoxy)-N-methyl-3-phenylpropan-1-amine]
2 |  | 750 nM | CNCCC(Oc1ccccc1C)c1ccccc1 (stereo not drawn) [Methyl-(3-phenyl-3-o-tolyloxy-propyl)-amine(tomoxetine)]

Source: BindingDB's records for PubMed 6123593 (Eli Lilly, 1982)
